We go through 1 compound from patent US10336717B2, “Inhibitors of beta-secretase” (Vitae Pharmaceuticals, Inc., priority 2009, dated 2019).

The experiment has as its target truncated human beta-secretase (residues 1-458, His6-tagged) (Homo sapiens (Human), UniProt P56817). The experiment in a line: BACE enzyme assay (fluorescence quench, Example 434A). The experiment is classed as biochemical.

Broadly, the IC50 is the concentration that gives 50% inhibition. Higher therefore signals a need for much substance. `COC1CCC2(CC1)Cc1ccc(C#CC3CCCC3)cc1C21N=C(N)N(C)C1=O` (stereo not shown) [Compound 147] showed a half-maximal inhibitory concentration (IC50) of 2.2 nM.
